Measured affinities in a library of Ab-14 heavy chain variants

The measurements come from Li et al. 2023 (doi:10.1038/s41467-023-39022-2) through the FLAb antibody collection.

All variants were tested on one target, the spike HR2 peptide PDVDLGDISGINAS (SARS-CoV-2).

Parent scFv Ab-14: VH joined to VL by the linker GGGGSGGGGSGGGGS. Changes lie in the heavy chain CDRs alone.
VH: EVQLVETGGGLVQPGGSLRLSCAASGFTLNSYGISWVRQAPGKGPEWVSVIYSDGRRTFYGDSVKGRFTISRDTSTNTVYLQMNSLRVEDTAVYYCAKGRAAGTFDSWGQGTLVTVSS
VL: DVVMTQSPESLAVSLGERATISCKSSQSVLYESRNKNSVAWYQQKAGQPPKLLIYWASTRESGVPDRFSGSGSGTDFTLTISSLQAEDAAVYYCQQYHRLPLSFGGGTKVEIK

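The variants were designed computationally from a first round of random CDR variants and then made and measured. Several design methods are mixed in this list. In AlphaSeq, yeast of one mating type display the scFv and yeast of the other type display the target. After mating in shaken culture at 30 °C for 16 h, diploids were selected and their barcode pairs sequenced. Scores were corrected for input abundance and mapped to Kd with protein pairs of known affinity run in the same pool. Each pool was mated in six replicate cultures.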

Variants are written as CDR1, CDR2 and CDR3 of the heavy chain (limits as in the source). Parent: GFTLNSYGIS, VIYSDGRRTFYGDSVK, GRAAGTFDS.
Variants here have more than six changes.
Each Kd is an estimate from the mating assay, the geometric mean of the replicates in which the pair was seen; lower is stronger.
"nd" marks a missing value. The strain was present, yet no cells mated with the target were sequenced in any replicate, which points to weak or no binding.
As a blank, each scFv also met three strains without target: over all heavy chain designs, 1% of these pairings were detected, typically at 120 nM and seldom below 7.0 nM. For each scFv, signals with the empty controls are counted beside the result.
Of ten entries with the parent sequence, four were seen in most replicates (averages 2.2 nM to 240 nM), three in one and three in none, so single entries are noisy.
The authors' rule: three or more of the six replicates give a measured affinity, fewer mean a poor binder.
A sequence measured in both rounds can read differently, since the two assays cover different ranges.

The variant GFSLDEYGIS / VIYADGIRQHYSDQVK / GVKFGNVIF gave nd (0 of 6 replicates; controls 0 of 18).
The variant GFQIDEYGIS / VIYADGLRTVYDDAVK / GMDTGLFMD gave 3.5 µM (1 of 6 replicates; controls 2 of 18).
The variant GFDLNEYGIS / VIYADGRRTAYIDSVK / GNNAGTFDV gave 700 pM (6 of 6 replicates; controls 0 of 18).
The variant GFDLDEYGIS / VIYADGRRTAYADDVK / GNVAGTFDI gave 380 pM (6 of 6 replicates; controls 1 of 18).
The variant GMDLGEYGIS / VIYADGERASYTNNFK / GVSAGFLTV gave 970 nM (1 of 6 replicates; controls 0 of 18).
The variant GFNLDEYGIS / VIYADGMRRAYVDEVK / GSHSDVQLM gave nd (0 of 6 replicates; controls 0 of 18).
The variant GFDINEYGIS / VIYADGMRTGYQQQVK / GYHSGGLNQ gave nd (0 of 6 replicates; controls 0 of 18).
The variant GFDLNEYGIS / VIYADGSRTFYSDSVK / GNQAGTFDM gave 680 pM (6 of 6 replicates; controls 0 of 18).
The variant GFDLNEYGIS / VIYADGQRTFYTDSVK / GQLAGTFDV gave 6.4 nM (5 of 6 replicates; controls 0 of 18).
The variant GFDLDEYGIS / VIYADGVRTAYSDSVK / GEVAGTFDT gave 2.0 nM (6 of 6 replicates; controls 0 of 18).
The variant GFDLNEYGIS / VIYADGKRTAYIDSVK / GSNAGTFDV gave 170 pM (6 of 6 replicates; controls 0 of 18).
The variant GFNLNEYGIS / VIYADGVRTFYADSVK / GGNAGTFDV gave 1.0 nM (6 of 6 replicates; controls 0 of 18).
The variant GFDLNEYGIS / VIYADGKRTQYIDSVK / GEAAGTFDL gave 460 pM (6 of 6 replicates; controls 1 of 18).
The variant GFDLNEYGIS / VIYADGVRTAYTDSVK / GNQAGTFDV gave 5.9 nM (5 of 6 replicates; controls 0 of 18).
The variant GFDVDEQGIS / VIYADGRRSQYANSVK / GANGGMFFM gave nd (0 of 6 replicates; controls 0 of 18).
The variant GQDLESYGIS / VIYADGRRKAYHDSVK / GTNGGVSFV gave nd (0 of 6 replicates; controls 0 of 18).
The variant GFDLNEYGIS / VIYADGMRTFYADSVK / GNIAGTFLS gave 18 nM (2 of 6 replicates; controls 0 of 18).
The variant GFDLNEYGIS / VIYADGMRTAYADKVK / GNNAGTFDL gave 1.0 nM (6 of 6 replicates; controls 0 of 18).
The variant GFDLNEYGIS / VIYADGRRTFYSDSVK / GQLAGTFDL gave 250 pM (6 of 6 replicates; controls 0 of 18).
The variant GFDLEDYGIS / VIYADGRRTAYADSVK / GNVAGTFDS gave 190 pM (6 of 6 replicates; controls 0 of 18).
The variant GFDLNEYGIS / VIYADGMRTVYADSVK / GNEAGTFDV gave 960 pM (6 of 6 replicates; controls 0 of 18).
The variant GFDINEYGVS / VIYADGMRAAYTDSVK / GKGAWIALV gave nd (0 of 6 replicates; controls 0 of 18).
The variant GFNLDEYGIS / VIYADGRRTFYADSVK / GQVAGTFLQ gave 250 pM (6 of 6 replicates; controls 0 of 18).
The variant GFDLNEYGIS / VIYADGRRTFYADSVK / GQHAGTFDI gave 290 pM (6 of 6 replicates; controls 0 of 18).
The variant GFDLEEYGIS / VIYADGRRTAYSDSVK / GENAGTFDI gave 510 pM (6 of 6 replicates; controls 0 of 18).
The variant GFDLDEYGIS / VIYADGRRTYYADSVK / GSNAGTFDM gave 400 pM (6 of 6 replicates; controls 0 of 18).
The variant GFDLNEYGIS / VIYADGRRTFYADSVK / GQEAGTFDI gave 17 nM (1 of 6 replicates; controls 0 of 18).
The variant GQDLNEYGIS / VIYADGLRTAYTNNFK / GVQAGFDQG gave nd (0 of 6 replicates; controls 0 of 18).
The variant GFDLNEYGIS / VIYADGQRTAYADDVK / GNVAGTFDL gave 250 pM (6 of 6 replicates; controls 1 of 18).
The variant GFDLNEYGIS / VIYADGMRQAYADSVK / GNVAGTFDQ gave 3.4 nM (5 of 6 replicates; controls 0 of 18).
The variant GFDLNEYGIS / VIYADGMRTAYTDNVK / GNQAGTFDV gave 100 pM (6 of 6 replicates; controls 0 of 18).
The variant GFDLEDYGIS / VIYADGRRTAYADSVK / GEAAGTFDS gave 250 pM (6 of 6 replicates; controls 0 of 18).
The variant GFDLDEYGIS / VIYADGTRKMYAPTFK / GEHGGTFLM gave 40 nM (1 of 6 replicates; controls 1 of 18).
The variant GFNLDEYGIS / VIYADGKRSAYANKVK / GEQGSFFST gave 2.6 µM (2 of 6 replicates; controls 0 of 18).
The variant GFDLDEYGIS / VIYADGMRTAYSDSVK / GGNAGTFDT gave 340 pM (6 of 6 replicates; controls 0 of 18).
The variant GFDLNEYGIS / VIYADGKRTAYSDSVK / GETAGTFDQ gave 340 pM (6 of 6 replicates; controls 0 of 18).
The variant GFDLNEYGIS / VIYADGRRTFYADSVK / GEAAGTFGL gave 660 pM (6 of 6 replicates; controls 0 of 18).
The variant GFDLNEYGIS / VIYADGMRTFYTDSVK / GEIAGTFDS gave 410 pM (6 of 6 replicates; controls 0 of 18).
The variant GFNLDEYGIS / VIYADGMRTAYADSVK / GNVAGTFDM gave 200 pM (6 of 6 replicates; controls 0 of 18).
The variant GFDLNEYGIS / VIYADGKRTFYTDSVK / GNAAGTFDV gave 620 pM (6 of 6 replicates; controls 1 of 18).
The variant GFDLNEYGIS / VIYADGSRTAYIDSVK / GNVAGTFDQ gave 9.3 nM (6 of 6 replicates; controls 1 of 18).
The variant GFDLNEYGIS / VIYADGARTAYADSVK / GNVAGTFDV gave 200 pM (6 of 6 replicates; controls 0 of 18).
The variant GFDLNEYGIS / VIYADGRRTFYADSVK / GGEAGTFDM gave 360 pM (6 of 6 replicates; controls 0 of 18).
The variant GFDLNEYGIS / VIYADGMRTFYTDSVK / GEHAGTFDS gave 400 pM (6 of 6 replicates; controls 0 of 18).
The variant GKSLDEYGIS / VIYADGLRKVYANNVK / GQFDDAMDL gave nd (0 of 6 replicates; controls 0 of 18).
The variant GDVLDEYGIS / VIYADGRRTFYTQDVK / GGKAGSLSV gave nd (0 of 6 replicates; controls 0 of 18).
The variant GFDLDEYGIS / VIYADGSRTFYADSVK / GENAGTFDV gave 540 pM (6 of 6 replicates; controls 0 of 18).
The variant GFDLNEYGIS / VIYADGMRTFYSDSVK / GEIAGTFDQ gave 310 pM (6 of 6 replicates; controls 1 of 18).

For reference, 6 entries of the list once more:

CDR-H1	CDR-H2	CDR-H3	Kd (apparent)	replicates with signal	signal with controls
GFQIDEYGIS	VIYADGLRTVYDDAVK	GMDTGLFMD	3.5 µM	1/6	2/18
GFDLNEYGIS	VIYADGMRTAYADKVK	GNNAGTFDL	1.0 nM	6/6	0/18
GFDLNEYGIS	VIYADGMRTFYADSVK	GNIAGTFLS	18 nM	2/6	0/18
GFDLNEYGIS	VIYADGMRTFYSDSVK	GEIAGTFDQ	310 pM	6/6	1/18
GMDLGEYGIS	VIYADGERASYTNNFK	GVSAGFLTV	970 nM	1/6	0/18
GKSLDEYGIS	VIYADGLRKVYANNVK	GQFDDAMDL	nd	0/6	0/18